From patent US20230061736A1, “GPR119 AGONISTS” (Kallyope, Inc., priority 2019, published 2023) come the findings set out here.

Sequences of proteins named here, by UniProt entry; tags and fusion partners are left off.
UniProt Q8TDV5, whole entry: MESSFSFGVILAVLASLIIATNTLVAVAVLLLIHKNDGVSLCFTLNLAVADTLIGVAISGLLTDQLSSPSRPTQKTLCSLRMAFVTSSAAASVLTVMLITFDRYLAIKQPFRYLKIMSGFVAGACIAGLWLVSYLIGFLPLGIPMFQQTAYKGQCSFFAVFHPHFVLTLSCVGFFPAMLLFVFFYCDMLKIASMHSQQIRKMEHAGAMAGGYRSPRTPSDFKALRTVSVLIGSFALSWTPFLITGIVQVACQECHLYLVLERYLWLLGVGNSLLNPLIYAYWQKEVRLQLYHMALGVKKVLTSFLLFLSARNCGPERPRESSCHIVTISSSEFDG

The structures appear in SMILES notation.

The target in this assay is human GPR119 (hGPR119) (Homo sapiens, UniProt Q8TDV5). Kind of assay: cAMP accumulation assay (cAMP Gs dynamic HTRF kit). The following applies: CHO-K1 cells stably expressing hGPR119, 4-parameter fit. How it is done:
CHO-K1 cells stably expressing human GPR119 (hGPR119) were prepared by transfection of a GPR119-carrying plasmid using Lipofectamine 2000 (following manufacturer instructions). A stable cell line was established using the limiting dilution method with geneticine selection. Assay-ready frozen (ARF) cells were prepared and used throughout the study.
The assay was performed in a 384-well plate format using the cAMP Gs dynamic assay kit from Cisbio. ARF cells expressing hGPR119 were thawed, washed and then resuspended in cAMP stimulation buffer at a cell density of 1.1×10^6 cells/mL. Cells were plated at a density of ˜10,000 cells/well (9 μL/well). Dose response curves for the tested compounds were prepared in a cAMP stimulation buffer, containing 0.1% Tween 80 at 4 fold the final concentration. The compounds were then transferred to the cell plates using BRAVO (3 μL/well) and the plates were incubated for 60 minutes at 37° C./5% CO2. Detection buffer (10 μL, prepared as described in the cAMP Gs dynamic kit) were added to each well, and the plates were incubated at ambient temperature for 1 hr.
RT-FRET was measured using a ClarioSTAR plate reader, calculating the ratio between emissions at 665 nm and 620 nm (HTRF ratio). […] EC50 and Max activity values were determined using a standard 4-parameter fit.

For the compound `COCc1cnc(N2CCC([C@H]3C[C@H]3CCOc3ccc(CC(=O)N4CC[C@@H](CNC(CO)(CO)CO)C4)c(F)c3)CC2)nc1`, the “Max Activity” value (% activity normalized to Max/Min controls) is “+++ (+++ ≥ 130%)”. Moreover, the EC50 (cAMP accumulation) was less than 100 nM.
